Values quoted from earlier work, collected in PubChem BioAssay AID1811 (Shanghai Institute of Organic Chemistry, 2009).
The other results are listed elsewhere or left out. Active and inactive are the calls of the source. Unless stated, no cut-off for active and inactive is given here.

Tested on: flavodoxin
Test: PubChem AID 1811
Details: PDB complex binding affinities from literature

**Q.** For `Cc1cc2c(cc1C)N(C[C@H](O)[C@H](O)[C@H](O)COP(=O)(O)O)c1[nH]c(=O)[nH]c(=O)c1N2`, which outcome is on record?
**A.** Its outcome is “active”.
